Data published in patent US7547521B2, “Heteromultimeric ion channel receptor and uses thereof” (McGill University, priority 2000, dated 2009).

By UniProt entry, the sequences of proteins in these tests, tags left out. Where a name states a change or a piece, a line headed by the entry shows the natural chain unless it says otherwise.
UniProt Q9UHC3: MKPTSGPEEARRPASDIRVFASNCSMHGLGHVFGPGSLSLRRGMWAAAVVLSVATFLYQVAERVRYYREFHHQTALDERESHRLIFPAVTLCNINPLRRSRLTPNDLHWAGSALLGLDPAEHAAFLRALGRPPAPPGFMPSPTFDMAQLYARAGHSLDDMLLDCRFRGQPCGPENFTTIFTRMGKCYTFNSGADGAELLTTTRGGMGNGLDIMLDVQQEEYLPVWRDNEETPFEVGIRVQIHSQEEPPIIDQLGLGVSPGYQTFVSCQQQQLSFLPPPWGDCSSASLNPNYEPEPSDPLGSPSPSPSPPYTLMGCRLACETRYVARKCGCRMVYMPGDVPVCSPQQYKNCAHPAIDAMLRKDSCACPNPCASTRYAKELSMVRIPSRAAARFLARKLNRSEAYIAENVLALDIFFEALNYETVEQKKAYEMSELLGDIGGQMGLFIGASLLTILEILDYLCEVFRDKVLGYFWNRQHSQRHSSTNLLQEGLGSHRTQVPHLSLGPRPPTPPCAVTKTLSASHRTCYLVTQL

Target: T1, human ASIC2S.2 (ASIC2A+3) receptors (Homo sapiens, UniProt Q16515+Q9UHC3, A14P/I85V/M358I/P13Q)
T1 construct: allowing RT-PCR amplified full length nucleic acids to be directionally subcloned into pcDNA3; expressed in transfected cells; host or cells: Xenopus laevis oocytes (nuclear injection of pcDNA3 cDNAs)
T1 sequence (Q16515 1-512): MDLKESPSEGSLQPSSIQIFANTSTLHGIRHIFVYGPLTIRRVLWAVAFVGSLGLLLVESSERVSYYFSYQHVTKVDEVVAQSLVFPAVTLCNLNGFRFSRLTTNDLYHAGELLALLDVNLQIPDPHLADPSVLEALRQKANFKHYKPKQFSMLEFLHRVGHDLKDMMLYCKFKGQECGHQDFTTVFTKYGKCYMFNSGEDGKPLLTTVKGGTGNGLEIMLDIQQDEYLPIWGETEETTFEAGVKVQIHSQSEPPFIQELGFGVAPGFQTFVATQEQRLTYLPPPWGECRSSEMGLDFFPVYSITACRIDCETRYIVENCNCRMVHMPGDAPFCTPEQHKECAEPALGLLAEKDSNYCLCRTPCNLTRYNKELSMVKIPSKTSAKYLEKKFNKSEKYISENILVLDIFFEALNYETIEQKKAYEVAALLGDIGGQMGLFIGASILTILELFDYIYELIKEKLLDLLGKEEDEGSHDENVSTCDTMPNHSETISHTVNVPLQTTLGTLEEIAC
T1 sequence (Q9UHC3 1-531 P13Q/A14P/I85V/M358I): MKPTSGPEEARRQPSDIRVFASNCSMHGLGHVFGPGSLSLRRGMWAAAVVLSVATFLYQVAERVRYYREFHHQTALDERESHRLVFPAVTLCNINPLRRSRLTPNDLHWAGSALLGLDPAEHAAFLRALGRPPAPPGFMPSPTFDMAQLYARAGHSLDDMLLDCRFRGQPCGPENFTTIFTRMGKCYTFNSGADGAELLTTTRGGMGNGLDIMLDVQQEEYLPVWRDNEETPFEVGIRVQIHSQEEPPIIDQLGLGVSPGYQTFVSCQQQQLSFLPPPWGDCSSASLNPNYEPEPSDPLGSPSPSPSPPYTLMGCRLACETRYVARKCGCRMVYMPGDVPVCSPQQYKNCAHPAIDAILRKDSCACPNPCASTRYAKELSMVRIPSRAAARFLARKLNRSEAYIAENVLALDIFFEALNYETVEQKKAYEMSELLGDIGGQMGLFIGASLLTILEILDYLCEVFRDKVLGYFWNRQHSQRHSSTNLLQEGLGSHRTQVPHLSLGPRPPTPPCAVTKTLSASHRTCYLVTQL
Experiment: Two-electrode voltage clamp of proton-gated currents in Xenopus oocytes expressing human ASIC2S.2
Format: cell-based
Conditions: pH 4, % of response measured in presence of 10^-8 M peptide, read-out: EC50 for potentiation of currents induced by pH 4
Procedure: According to method 1 described above, nuclei of Xenopus oocytes are injected with ASIC2A and ASIC3 cDNAs separately subcloned into pcDNA3 expression vector (1-5 ng). Control oocytes are injected with H2O. Oocytes are maintained at 18° C. in modified Barth's solution. Proton-activated currents are measured by two-electrode voltage clamp 1-3 days after injection. During voltage clamp (−60 mV/−100 mV)), oocytes are bathed in 116 mM NaCl, 2 mM KCl, 1.8 mM CaCl2, 10 mM acetic acid and 5 mM Hepes (pH 7.4 with NaOH). To determine proton-gating, bath solution is quickly switched to a solution of pH<7.4 for 10 sec, then returned to bath solution for washout. The stimulating solution is prepared by lowering the pH of the original bath solution with hydrochloric acid. The osmolality of the solutions is verified with an osmometer and corrected with mannitol or choline chloride. To document ionic selectivity, NaCl is replaced with LiCl or KCl. Current-voltage relationships are determined by stepping from a holding potential of −60 mV to potentials between −100 and +60 mV for 10 seconds before and during stimulation with low pH solution. FIGS. 1A (human) and 1B (rat) compare proton-activated currents carried by homomultimeric ASIC2A and ASIC3 receptors to the heteromultimeric ASIC-2S.2 receptors (ASIC2a+3). […] Species differences are also noteworthy. […]

FMRFamide
EC50: 13 µM
